Assay results taken from US11160813B2, “Combination therapy for nonalcoholic steatohepatitis (NASH) and liver fibrosis” (Modunex Bio Corp., priority 2016, dated 2021).

System: mouse model of NASH
Experiment: mouse model of NASH and fibrosis induced by streptozocin and high fat diet
Assay type: in vivo, C59BL/6J mice
Conditions: OCA, MVC, alone or together
Description: We have utilized a well validated mice model in which the NASH and fibrosis was induced by sequential induction of diabetes mellitus and a high fat diet (14). On day 2, C59BL/6J mice were injected with streptozocin, then treated with high fat diet from week 4 until week 9. The intervention treatment started from week 5 until week 9. On week 9, these mice were euthanized. The intervention of the NASH and its subsequent disease processes was performed by administration of CCR5 antagonist maraviroc at dose of 45 mg/kg once daily orally and 30 mg/kg of OCA once daily, either alone or in combination for 4 wks.
NAS scores were determined according to the consensus by Nonalcoholic Steatohepatitis Clinical Research Network (13)
Fibrosis scores were determined according to the consensus by Nonalcoholic Steatohepatitis Clinical Research Network (13).

maraviroc [MVC]
liver enzyme AST (FIG. 7A): not observed
liver enzyme ALP (FIG. 8A): but not in mice treated with MVC
